Legend:
[1] = target: T1, PAD4 (Homo sapiens, UniProt Q9UM07); assay: Standard PAD4 assay (citrulline formation from BAEE), IC50 studies; type: biochemical; settings: 1 mM BAEE, 0.2 μM PAD4, 15 min pre-incubation at 37° C.
T1 construct: made in house
Description: Reactions were quenched by flash freezing in liquid N2. The amount of Cit produced was then quantified according to methods known in the art. […] Inhibition Studies.

The chains behind the UniProt entries cited, without tags or fusion partners.
UniProt Q9UM07, whole entry: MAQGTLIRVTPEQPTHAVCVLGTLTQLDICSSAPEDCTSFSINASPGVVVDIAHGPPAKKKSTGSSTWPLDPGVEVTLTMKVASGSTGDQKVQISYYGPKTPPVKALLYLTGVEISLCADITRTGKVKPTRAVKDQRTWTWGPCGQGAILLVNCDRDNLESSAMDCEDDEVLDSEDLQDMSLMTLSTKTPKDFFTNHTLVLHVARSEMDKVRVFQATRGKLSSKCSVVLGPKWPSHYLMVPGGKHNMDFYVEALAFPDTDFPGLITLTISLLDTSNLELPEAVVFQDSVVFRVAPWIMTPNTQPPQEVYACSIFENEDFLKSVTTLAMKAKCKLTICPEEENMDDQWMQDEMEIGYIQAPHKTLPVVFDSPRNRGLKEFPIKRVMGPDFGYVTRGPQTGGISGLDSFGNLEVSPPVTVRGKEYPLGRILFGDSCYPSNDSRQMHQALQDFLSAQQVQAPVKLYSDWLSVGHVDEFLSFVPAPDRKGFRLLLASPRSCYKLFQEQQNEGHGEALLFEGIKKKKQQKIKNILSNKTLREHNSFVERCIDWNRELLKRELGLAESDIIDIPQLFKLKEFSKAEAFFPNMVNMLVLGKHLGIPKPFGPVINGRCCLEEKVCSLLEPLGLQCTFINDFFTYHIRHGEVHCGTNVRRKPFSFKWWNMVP

[2] = target: T1, PAD4; assay: Inhibition studies: kinetic analysis of PAD4 activity versus BAEE concentration; type: biochemical; settings: BAEE 0-20 mM, 0.2 μM PAD4; read-out: Kis
Experimental: PAD4 activity was measured as a function of substrate concentration in the absence and presence of increasing concentrations of each inhibitor.
Briefly, the compounds were incubated in Reaction Buffer containing various concentrations of BAEE (0-20 mM) for 10 minutes at 37° C. PAD4 (0.2 μM) was then added to initiate the reaction and allowed to proceed for 6 additional minutes. Reactions were then quenched by flash freezing in liquid N2 and the amount of Cit produced was quantified.
[formula] using GraFit version 5.0.11.

IC50 [1] [µM] | Ki [2] [µM] | Compound
860 ± 80 | – | C[C@H]1c2cccc(O)c2C(=O)C2=C(O)[C@]3(O)C(=O)C(C(N)=O)=C(O)[C@@H](N(C)C)[C@@H]3[C@@H](O)[C@@H]21 [Doxycycline]
1800 | 560 ± 170 | [H]/N=C(/N)N[C@H]1[C@H](O)[C@@H](O)[C@H](O[C@@H]2O[C@@H](C)[C@](O)(C=O)[C@H]2O[C@@H]2O[C@@H](CO)[C@H](O)[C@@H](O)[C@@H]2NC)[C@@H](N/C(N)=N\[H])[C@@H]1O [Streptomycin]

Source: US8007996B2, “Methods to identify protein arginine deiminase 4 inhibitors” (University of South Carolina, priority 2007, dated 2011)
